Data reported in patent US7597882B2, “Protein crosslinkers, crosslinking methods and applications thereof” (Incept LLC, priority 2006, dated 2009).

Amino acid sequences for entries named in this document (tags omitted). Residues count along the entry.
UniProt P02769, 25-607: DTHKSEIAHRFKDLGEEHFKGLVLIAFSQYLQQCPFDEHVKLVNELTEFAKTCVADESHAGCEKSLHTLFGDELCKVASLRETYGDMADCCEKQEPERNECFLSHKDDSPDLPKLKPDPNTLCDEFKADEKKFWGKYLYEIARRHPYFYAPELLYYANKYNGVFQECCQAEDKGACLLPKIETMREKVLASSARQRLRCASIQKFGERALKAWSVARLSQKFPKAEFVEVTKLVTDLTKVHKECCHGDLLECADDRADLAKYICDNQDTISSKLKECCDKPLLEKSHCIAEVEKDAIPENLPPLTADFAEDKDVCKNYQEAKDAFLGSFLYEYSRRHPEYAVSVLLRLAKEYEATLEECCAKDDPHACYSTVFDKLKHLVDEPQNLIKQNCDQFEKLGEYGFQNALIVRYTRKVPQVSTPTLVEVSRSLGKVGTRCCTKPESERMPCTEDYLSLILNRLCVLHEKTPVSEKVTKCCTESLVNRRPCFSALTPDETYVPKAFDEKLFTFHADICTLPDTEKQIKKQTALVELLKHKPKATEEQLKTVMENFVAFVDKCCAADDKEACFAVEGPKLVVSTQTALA

Assays:
[1] = Solubility in water; assay type: physicochemical; settings: in 1 ml water or PBS solution
[2] = target: bovine albumin (Bos taurus, UniProt P02769); assay: Crosslinking of protein (bovine albumin) using water soluble crosslinkers
Procedure: 1 g of bovine albumin is dissolved in 1 ml phosphate buffer solution (20 mM PBS, pH 7.4). 100 mg aspartic acid succinimide NHS ester (Example 30) is dissolved in 1 ml PBS solution (20 mM PBS, pH 7.4). Both the solutions are mixed in 50 ml polypropylene tube. The crosslinked gel formation is noticed in less than 30 minutes.
1 g of bovine albumin is dissolved in 2 ml borate buffer (10 mM, pH 9.5). 100 mg Lysine Succinimide NHS ester (Example 1) is dissolved in 1 ml 10 mM phosphate buffer, pH 4.0. 1 ml of each solution are mixed in a 50 ml polypropylene centrifuge tube. The gel formation is noticed in less than 30 minutes.

[3] = Degradation of crosslinked gel made with 8 arm PEG amine; assay type: physicochemical; settings: gel with 8 arm PEG amine 20000; hydrolysis of ester bond of crosslinker
Procedure: 0.12 g Hydroxylamine Succinate NHS ester (Example 4) is dissolved in 5 ml phosphate buffered saline. 1 ml of each of these two solutions are mixed to produce a crosslinked gel. The crosslinked gel degrades due to hydrolysis of succinate ester bond in Hydroxylamine Succinate NHS ester.
0.12 g Hydroxylamine Glutarate NHS ester (Example 7) is dissolved in 5 ml phosphate buffered saline. 1 ml of each of two solutions are mixed to produce a crosslinked gel. The crosslinked gel degrades due to hydrolysis of glutarate ester bond in Hydroxylamine Glutarate NHS ester.

## Aspartic Acid Succinimide NHS Ester
[1]
  amount of crosslinker dissolved completely: 15 mg
[2]; 1 g bovine albumin in 1 ml PBS, 100 mg crosslinker in 1 ml PBS (20 mM, pH 7.4)
  crosslinked gel formation time: less than 30 minutes

## Hydroxylamine Succinate NHS Ester
[3]
  degradation of crosslinked gel: degrades

## Lysine Succinimide NHS ester
[2]; bovine albumin in borate buffer pH 9.5, 100 mg crosslinker in 1 ml 10 mM phosphate buffer pH 4.0
  gel formation time: less than 30 minutes
